The results in this text go back to paper PMC11415492 (Nature Communications, 2024).

Amino acid sequences for entries named in this document (tags omitted). A change or cut given only in a name is not applied to a line headed by its entry.
UniProt P33534: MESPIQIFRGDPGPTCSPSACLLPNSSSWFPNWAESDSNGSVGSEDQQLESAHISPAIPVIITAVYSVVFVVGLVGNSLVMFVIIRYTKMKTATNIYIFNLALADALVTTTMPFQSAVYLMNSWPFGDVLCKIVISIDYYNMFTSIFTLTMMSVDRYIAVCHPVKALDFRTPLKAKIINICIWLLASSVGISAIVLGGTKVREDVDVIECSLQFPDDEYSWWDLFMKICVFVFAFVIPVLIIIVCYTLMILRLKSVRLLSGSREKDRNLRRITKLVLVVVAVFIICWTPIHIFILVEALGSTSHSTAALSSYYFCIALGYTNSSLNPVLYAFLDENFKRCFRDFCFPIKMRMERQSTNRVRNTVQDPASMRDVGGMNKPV

Structures are written as SMILES.

The subject of one test is male Fisher F-344 rats. Briefly: Fentanyl intravenous self-administration.
In a further test the test system is male rats. In words: Cue-induced reinstatement of responding previously maintained by morphine or fentanyl. The following applies: 10 mg/kg i.p.
A further test deals with mKOR (Mus musculus, UniProt P33534). Briefly: [35S]GTPγS functional assay, mouse opioid receptors. It counts as biochemical. The note with it: [35S]GTPγS binding assay. A general note: Binding of GTPγS marks nucleotide exchange on a G protein.

Take `CCC1CC2CC3c4oc5ccc(O)cc5c4CCN(C2)C13` (single isomer, unassigned): the “duration of statistically significant suppression of fentanyl intake” value in the test on male Fisher F-344 rats (single 40 mg/kg i.p.) is listed as 4 days. Besides, in the test with male Fisher F-344 rats (single reset dose (40 mg/kg i.p.)), the “effect on fentanyl intake” value is “reduced the intake of fentanyl for at least five days”. For the same compound, in the test on male rats, the cue-induced morphine reinstatement entry was “strongly reduced” and the “reduction of cue-induced reinstatement responding (fentanyl)” value is “approximately 60%”. At mKOR, the “selectivity for KOR over DOR” value was “about seven-fold” and the “selectivity for KOR versus MOR” value was “more than ten-fold”.
